The list shows a part of the results, in another mix than the full data. Results filed as inconclusive are left out. Active and inactive are the calls of the source. The rule behind the calls is not given here; tested in MIN6 cells.
Experiment: cell-permeable autofluorescent compounds in GFP channel, dose response, artefact control, imaging, high-content imaging (AID 2124);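 note: cells exposed to compound for 48 hours before fixing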
Conditions: cells, GFP-channel autofluorescence, at 10 µM, hits give high values

CP(=O)(Nc1cccc(Br)c1)Oc1ccccc1 (stereo unspecified)
z-score: inactive: -0.38

Source: PubChem BioAssay AID2124 (Sanford-Burnham Center for Chemical Genomics, 2009)
